Reference: patent publication US20230288433A1, “DETECTION OF PHOSPHOINOSITIDES IN BLOOD CELLS AS A BIOMARKER FOR ALPHA SYNUCLEIN ASSOCIATED PATHOLOGIES AND A METHOD OF TREATMENT OF PARKINSON'S DISEASE AND THE RELATED NEURODEGENERATIONS” (YISSUM RESEARCH DEVELOPMENT COMPANY OF THE HEBREW …, priority 2021, published 2023)

System: muscarinic receptors
Conditions: primary cortical neurons from α-Syn−/− mouse brains, 5 DIV, 1 mM; control neurons treated with DMSO solvent set at 100%

C[N+](C)(C)CCOC(N)=O [carbachol]
PI4,5P2 signal: 25%
